This assay addresses human IDO (Homo sapiens, UniProt P14902). Briefly: IDO inhibition enzyme assay (N-formylkynurenine/kynurenine formation read at 490 nm). It counts as biochemical. To be noted: purified recombinant IDO(1); L-Trp substrate; ascorbic acid/methylene blue reductant, catalase; pH 6.5; 37° C. for 60 minutes. On the procedure:
Compounds of the instant invention were analyzed for inhibition of human IDO. The assay was conducted according to a literature protocol, with ascorbic acid and methylene blue serving the role of reductant (Littlejohn et al. (2000) Protein Expression and Purification, 19:22-29; Sono et al. (1989) J. Biol. Chem., 264:1616-1622). Catalase was added to prevent IDO decomposition from peroxide side products (Ohnishi et al. (1977) J. Biol. Chem., 252:4643-4647). The enzyme assay monitored for formation of N-formylkynurenine by hydrolyzing the formyl group and spectrophotometrically analyzing for the conjugated imine generated from kynurenine and 4-(dimethylamino) benzaldehyde.
Specifically, the inhibition assays were performed in a 96-well microtiter plate as previously described with a small modification (Littlejohn et al. (2000) Prot. Expr. Purif., 19:22-29). Briefly, the reaction mixture contained 50 mM potassium phosphate buffer (pH 6.5), 40 mM ascorbic acid, 400 μg/ml catalase, 20 μM methylene blue and purified recombinant IDO(1) optimized based on its activity. […] The yellow color generated from the reaction with kynurenine was measured at 490 nm using a Synergy HT microtiter plate reader (Bio-Tek, Winooski, Vt.). The data was analyzed using Graph Pad Prism 4 software (Graph Pad Software Inc., San Diego, Calif.).

By UniProt entry, the sequences of proteins in these tests, tags left out.
UniProt P14902, whole entry: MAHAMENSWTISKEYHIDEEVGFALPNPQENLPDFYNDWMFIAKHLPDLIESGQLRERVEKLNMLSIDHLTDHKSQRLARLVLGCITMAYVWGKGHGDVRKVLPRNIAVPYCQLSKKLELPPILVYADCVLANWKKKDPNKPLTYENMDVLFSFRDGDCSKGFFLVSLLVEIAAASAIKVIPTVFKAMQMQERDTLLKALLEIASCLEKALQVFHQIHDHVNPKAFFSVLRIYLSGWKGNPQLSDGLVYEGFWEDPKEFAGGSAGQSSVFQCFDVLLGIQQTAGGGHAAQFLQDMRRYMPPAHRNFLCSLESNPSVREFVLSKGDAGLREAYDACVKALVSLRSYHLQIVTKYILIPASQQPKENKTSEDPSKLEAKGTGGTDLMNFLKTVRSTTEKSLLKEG

Molecules are shown by their SMILES.

In general, IC50 refers to the point on the concentration scale where inhibition reaches its midpoint. `CC1(C)OC2=C(C(=O)c3ccccc3C2=O)[C@H](NCc2ccccc2)[C@@H]1O` [Compound 16, (3S,4S)-4-(benzylamino)-3-hydroxy-2,2-dimethyl-3,4-dihydro-2H-benzo[g]chromene-5,10-dione]: the IC50 is 0.125 µM.

In the case of `CC1(C)OC2=C(C(=O)c3ccccc3C2=O)[C@H](NCc2ccccc2)[C@@H]1O` [Compound 26, (3S,4S)-N-benzyl-3-hydroxy-2,2-dimethyl-5,10-dioxo-3,4,5,10-tetrahydro-2H-benzo[g]chromen-4-aminium chloride], the IC50 is 0.286 µM.

The values are drawn from patent US8389568B2, “IDO inhibitors and methods of use thereof” (Lankenau Institute for Medical Research, priority 2007, dated 2013).
